Columns and labels:
[1] = system: salmon testes DNA; conditions: human, rat (enzyme sources), pH 7.4
[2] = system: salmon testes DNA; conditions: human, rat (enzyme sources)

Nc1ccc(-c2ccccc2)cc1 [4ABP, 4-Aminobiphenyl]
influence of cyt P450 source on relative DNA oxidation rate [1]: Supersome 1A2 had the largest relative DNA oxidation and adduction rates | influence of cyt P450 source on relative DNA adduction rate [2]: Supersome 1A2 had the largest relative DNA oxidation and adduction rates

Reference: article PMC5777145 (Analytical chemistry, 2017)
